Where only a bound is given, the exact number is not on record here.

The chains behind the UniProt entries cited, without tags or fusion partners. Residues count along the entry.
UniProt P08637, 17-208 F176V: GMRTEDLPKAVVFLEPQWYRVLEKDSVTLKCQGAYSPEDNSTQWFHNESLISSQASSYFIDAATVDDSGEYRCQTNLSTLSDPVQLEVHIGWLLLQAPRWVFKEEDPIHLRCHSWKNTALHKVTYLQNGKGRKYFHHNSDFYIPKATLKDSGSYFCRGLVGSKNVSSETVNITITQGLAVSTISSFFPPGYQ

Data on seven molecules can be found in patent publication US20240108738A1, “BICYCLIC PEPTIDE LIGANDS SPECIFIC FOR NK CELLS” (Bicycle Tx Limited, priority 2021, published 2024).

The experiment concerns the target CD16a (V Variant) (Homo sapiens, UniProt P08637, F176V). As to the kind of experiment: FcγRIII (CD16a) SPR (Method A and/or Method B), V variant. The class given is binding.

`C#CCCC(=O)NCCCC[C@H](NC(=O)[C@H](C)NC(=O)[C@@H]1CSCc2nc3nc(n2)CSC[C@H](NC(=O)[C@@H]2CCCN2C(=O)CNC(=O)[C@H](CC(C)C)NC(=O)[C@H](CCC(=O)O)NC(=O)[C@H](CC(C)C)NC(=O)[C@H](CC(C)C)NC(=O)CNC(=O)[C@H](C(C)C)NC(=O)[C@@H](NC(=O)[C@H](C)N)CSC3)C(=O)N[C@@H](CO)C(=O)N[C@@H](CC(=O)O)C(=O)N[C@@H](CC(C)C)C(=O)N1)C(N)=O` [BCY16165, A-(SEQ ID NO: 244)-A-[K(PYA)]]: binding was put at a Kd of 3.23 µM. In the case of `CC(C)C[C@@H]1NC(=O)[C@H](CCC(=O)O)NC(=O)[C@H](CCC(=O)O)NC(=O)[C@H](CC(C)(C)C)NC(=O)CNC(=O)[C@H](C(C)C)NC(=O)[C@@H](NC(=O)[C@H](C)N)CSCc2nc3nc(n2)CSC[C@H](NC(=O)[C@@H]2CCCN2C(=O)CNC1=O)C(=O)N[C@@H](CO)C(=O)N[C@@H](CC(=O)O)C(=O)N[C@@H](CC(C)C)C(=O)N[C@H](C(=O)N[C@@H](C)C(N)=O)CSC3` [BCY16501, A-(SEQ ID NO: 247)-A], the Kd – broadly, the constant that tells how readily two partners part at equilibrium – was found to be 3.23 ± 2.51 µM. In turn, `CC(C)CC[C@@H]1NC(=O)CNC(=O)[C@H](C(C)C)NC(=O)[C@@H](NC(=O)[C@H](C)N)CSCc2nc3nc(n2)CSC[C@H](NC(=O)[C@@H]2CCCN2C(=O)CNC(=O)[C@H](CC(C)C)NC(=O)[C@H](CCC(=O)O)NC(=O)[C@H](CCC(=O)O)NC1=O)C(=O)N[C@@H](CO)C(=O)N[C@@H](CC(=O)O)C(=O)N[C@@H](CC(C)C)C(=O)N[C@H](C(=O)N[C@@H](C)C(N)=O)CSC3` [BCY16527, A-(SEQ ID NO: 262)-A] displayed a Kd greater than 5 µM.

Regarding `CC(C)CC[C@@H]1NC(=O)[C@H](CC(C)C)NC(=O)CNC(=O)[C@H](C(C)C)NC(=O)[C@@H](NC(=O)[C@H](C)N)CSCc2nc3nc(n2)CSC[C@H](NC(=O)[C@@H]2CCCN2C(=O)CNC(=O)[C@H](CC(C)C)NC(=O)[C@H](CCC(=O)O)NC1=O)C(=O)N[C@@H](CO)C(=O)N[C@@H](CC(=O)O)C(=O)N[C@@H](CC(C)C)C(=O)N[C@H](C(=O)N[C@@H](C)C(N)=O)CSC3` [BCY16528, A-(SEQ ID NO: 263)-A], the Kd is greater than 5 µM. `C[C@H](N)C(=O)N[C@H]1CSCc2nc3nc(n2)CSC[C@H](NC(=O)[C@@H]2CCCN2C(=O)[C@H](CCC(=O)O)NC(=O)[C@H](CO)NC(=O)[C@H](Cc2ccccc2)NC(=O)[C@H](Cc2ccc(F)cc2)NC(=O)[C@H](Cc2c[nH]c4ccccc24)NC(=O)[C@H](CCCNC(=N)N)NC1=O)C(=O)NCC(=O)N[C@@H](C)C(=O)N[C@@H](Cc1c[nH]c2ccccc12)C(=O)N[C@H](C(=O)N[C@@H](C)C(N)=O)CSC3` [BCY20379, A-(SEQ ID NO: 225)-A] displayed a Kd of 1.43 µM. To `C[C@H](N)C(=O)N[C@H]1CSCc2nc3nc(n2)CSC[C@H](NC(=O)[C@@H]2CCCN2C(=O)[C@H](CCC(=O)O)NC(=O)[C@H](CCO)NC(=O)[C@H](Cc2ccccc2)NC(=O)[C@H](Cc2c[nH]cn2)NC(=O)[C@H](Cc2c[nH]c4ccccc24)NC(=O)[C@H](CCCNC(=N)N)NC1=O)C(=O)NCC(=O)N[C@@H](C)C(=O)N[C@@H](Cc1c[nH]c2ccccc12)C(=O)N[C@H](C(=O)N[C@@H](C)C(N)=O)CSC3` [BCY20388, A-(SEQ ID NO: 232)-A] belongs 1.07 µM. Next, `C[C@H](N)C(=O)N[C@H]1CSCc2nc3nc(n2)CSC[C@H](NC(=O)[C@@H]2CCN2C(=O)[C@H](CCC(=O)O)NC(=O)[C@H](CO)NC(=O)[C@H](Cc2ccccc2)NC(=O)[C@H](Cc2ccc(O)cc2)NC(=O)[C@H](Cc2c[nH]c4ccccc24)NC(=O)[C@H](CCCNC(=N)N)NC1=O)C(=O)N[C@H](C)C(=O)N[C@@H](C)C(=O)N[C@@H](Cc1c[nH]c2ccccc12)C(=O)N[C@H](C(=O)N[C@@H](C)C(N)=O)CSC3` [BCY20394, A-(SEQ ID NO: 236)-A]: 1 µM.
